{"sequences": {"note": "Chains of the proteins cited; added tags and fusions are not shown.", "UniProt P41143, whole entry": "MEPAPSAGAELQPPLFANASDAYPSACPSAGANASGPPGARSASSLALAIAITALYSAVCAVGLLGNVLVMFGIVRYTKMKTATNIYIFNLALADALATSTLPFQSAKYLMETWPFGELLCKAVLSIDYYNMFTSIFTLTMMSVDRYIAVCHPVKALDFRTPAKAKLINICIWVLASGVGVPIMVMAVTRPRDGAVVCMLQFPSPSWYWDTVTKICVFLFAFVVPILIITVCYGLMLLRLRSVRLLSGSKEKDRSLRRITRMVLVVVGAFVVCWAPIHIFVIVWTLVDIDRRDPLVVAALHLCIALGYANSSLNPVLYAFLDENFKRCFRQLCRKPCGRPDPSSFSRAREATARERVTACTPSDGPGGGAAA", "UniProt P33535, whole entry": "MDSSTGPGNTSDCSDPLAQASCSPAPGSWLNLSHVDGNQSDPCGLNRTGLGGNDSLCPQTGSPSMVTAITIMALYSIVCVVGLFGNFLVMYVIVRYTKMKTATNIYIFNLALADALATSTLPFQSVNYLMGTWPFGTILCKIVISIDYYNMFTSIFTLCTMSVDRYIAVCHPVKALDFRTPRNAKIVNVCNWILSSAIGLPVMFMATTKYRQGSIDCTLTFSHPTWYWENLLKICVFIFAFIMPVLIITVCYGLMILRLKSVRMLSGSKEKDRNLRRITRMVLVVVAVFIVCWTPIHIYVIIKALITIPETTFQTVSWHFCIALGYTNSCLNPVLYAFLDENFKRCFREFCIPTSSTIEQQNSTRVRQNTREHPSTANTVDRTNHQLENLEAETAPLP", "UniProt P35372, whole entry": "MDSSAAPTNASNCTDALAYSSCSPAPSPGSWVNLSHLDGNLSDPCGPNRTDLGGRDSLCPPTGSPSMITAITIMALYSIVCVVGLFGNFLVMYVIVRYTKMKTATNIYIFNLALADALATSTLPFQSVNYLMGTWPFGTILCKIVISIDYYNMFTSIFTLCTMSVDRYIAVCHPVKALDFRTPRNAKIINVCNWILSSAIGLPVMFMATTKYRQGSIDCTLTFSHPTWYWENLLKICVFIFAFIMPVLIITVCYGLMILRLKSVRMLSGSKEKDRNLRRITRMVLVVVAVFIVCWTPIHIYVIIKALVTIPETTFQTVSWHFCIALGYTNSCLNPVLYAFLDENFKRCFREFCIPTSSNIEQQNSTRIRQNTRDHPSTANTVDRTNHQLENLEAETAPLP"}, "source": "patent US9784740B2", "about": "(priority 2013, dated 2017)", "key": {"[1]": {"target": "delta opioid receptor (OPRD1) (Homo sapiens, UniProt P41143)", "experiment": "β-arrestin recruitment assay (PathHunter) in U2OS-OPRD1 cells", "format": "cell-based"}, "[2]": {"target": "T1, mu-opioid receptor (C6mu membranes) (Rattus norvegicus, UniProt P33535)", "experiment": "[35S]GTPγS binding in C6mu cell membranes", "format": "biochemical"}, "[3]": {"target": "T1, mu-opioid receptor (C6mu membranes)", "experiment": "[3H]diprenorphine saturation binding in C6mu membranes", "details": "10 uM modulator"}, "[4]": {"target": "T1, mu-opioid receptor (C6mu membranes)", "experiment": "DAMGO competition binding with [3H]diprenorphine in C6mu membranes", "details": "10 uM modulator"}, "[5]": {"target": "mu-opioid receptor (OPRM1) (Homo sapiens, UniProt P35372)", "experiment": "β-arrestin recruitment assay (PathHunter) in U2OS-OPRM1 cells"}}}
{"molecule": "COc1ccc(C2SCCN2S(=O)(=O)c2ccc(C)cc2)cc1[N+](=O)[O-]", "note": "(centres unmarked)", "values": [{"measurement": "β-arrestin recruitment, agonist detection mode", "setting": "[1]; U2OS-OPRD1, no leu-enkephalin", "value": "no activity"}, {"measurement": "β-arrestin recruitment, PAM detection mode", "setting": "[1]; U2OS-OPRD1, ~EC10 (0.4 nM) leu-enkephalin", "value": "no activity"}, {"measurement": "effect on DAMGO potency in [35S]GTPγS assay", "setting": "[2]; 10 uM modulator", "value": "not significantly increased"}, {"measurement": "effect on morphine Emax in [35S]GTPγS assay", "setting": "[2]; 10 uM modulator", "value": "increased morphine Emax to a small degree"}, {"measurement": "effect on morphine potency in [35S]GTPγS assay", "setting": "[2]; 10 uM modulator", "value": "not significantly increased"}, {"measurement": "agonist activity of modulator in [35S]GTPγS binding", "setting": "[2]; modulator alone", "value": "No significant agonist activity was detected"}, {"measurement": "decrease in [3H]diprenorphine binding affinity", "setting": "[3]", "value": 2, "unit": "fold"}, {"measurement": "effect on DAMGO binding affinity", "setting": "[4]", "value": "no significant effect"}, {"measurement": "β-arrestin recruitment, PAM detection mode activity", "setting": "[5]; U2OS-OPRM1, ~EC10 endomorphin-I", "value": "no activity"}, {"measurement": "Description (PAM efficacy class / SAM)", "setting": "[5]; U2OS-OPRM1, β-arrestin PAM and SAM detection modes", "value": "SAM"}, {"measurement": "β-arrestin recruitment, agonist detection mode (compound alone)", "setting": "[5]; U2OS-OPRM1 cells, no orthosteric agonist", "value": "no activity"}]}
